What was measured:
in vitro [1] = conditions: dog, MDCK-MDR1
hERG (KCNH2) = hERG (KCNH2) (Homo sapiens, UniProt Q12809); experiment: in vitro
in vitro [2] = conditions: rat, liver microsomes
in vitro [3] = conditions: cynomolgus monkey, liver microsomes

Chains of the proteins cited; added tags and fusions are not shown. Lines headed by an entry give the natural chain unless they say otherwise; changes in a name come on top.
UniProt Q12809: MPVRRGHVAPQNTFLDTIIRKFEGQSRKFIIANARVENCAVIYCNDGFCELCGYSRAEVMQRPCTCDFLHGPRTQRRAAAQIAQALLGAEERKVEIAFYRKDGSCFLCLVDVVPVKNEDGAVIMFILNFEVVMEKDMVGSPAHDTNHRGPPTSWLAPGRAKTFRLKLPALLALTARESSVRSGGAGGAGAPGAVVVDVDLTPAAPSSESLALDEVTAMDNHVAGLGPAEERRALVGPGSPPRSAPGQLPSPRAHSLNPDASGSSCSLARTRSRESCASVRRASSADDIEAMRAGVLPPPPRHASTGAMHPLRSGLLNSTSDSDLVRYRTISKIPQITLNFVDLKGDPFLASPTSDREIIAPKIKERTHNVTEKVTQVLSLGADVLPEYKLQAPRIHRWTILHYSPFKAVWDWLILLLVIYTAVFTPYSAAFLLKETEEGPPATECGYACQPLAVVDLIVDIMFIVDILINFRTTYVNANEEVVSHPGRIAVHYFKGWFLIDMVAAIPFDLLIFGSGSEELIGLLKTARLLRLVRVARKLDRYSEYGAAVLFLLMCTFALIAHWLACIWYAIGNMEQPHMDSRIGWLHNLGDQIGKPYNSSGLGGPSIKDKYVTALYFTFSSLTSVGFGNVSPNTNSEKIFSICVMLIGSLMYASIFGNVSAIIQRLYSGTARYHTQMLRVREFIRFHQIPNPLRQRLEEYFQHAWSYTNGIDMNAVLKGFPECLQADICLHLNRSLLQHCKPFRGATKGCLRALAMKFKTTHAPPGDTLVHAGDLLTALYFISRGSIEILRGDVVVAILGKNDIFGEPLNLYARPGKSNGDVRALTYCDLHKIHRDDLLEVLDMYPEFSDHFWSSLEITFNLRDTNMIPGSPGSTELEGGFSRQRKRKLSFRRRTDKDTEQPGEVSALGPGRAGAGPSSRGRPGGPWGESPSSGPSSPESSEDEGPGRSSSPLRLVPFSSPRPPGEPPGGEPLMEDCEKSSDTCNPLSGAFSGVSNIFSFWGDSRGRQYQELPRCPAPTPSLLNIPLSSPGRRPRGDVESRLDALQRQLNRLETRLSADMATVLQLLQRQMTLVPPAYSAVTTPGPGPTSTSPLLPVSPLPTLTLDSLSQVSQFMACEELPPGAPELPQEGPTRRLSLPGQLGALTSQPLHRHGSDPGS

Cc1ncc(S(=O)(=O)N2CCC(c3cn4ncnc4cc3C)CC2)s1
Papp at 2 h, 5 µM (in vitro [1]): 20 ×10⁻⁶ cm/s

Cc1ncc(S(=O)(=O)N2CCC(c3cn4ncnc4cc3Cl)CC2)s1
inhibition at 0.05 h, 10 µM (hERG (KCNH2)): 62.8% | CLhep predicted at 0.75 h, 1 µM (in vitro [2]): 42 mL/min/kg | CLhep predicted (in vitro [3]): 29 mL/min/kg
